The other results are listed elsewhere or left out. Entries with a potency or affinity are not part of this list. Calls of active or inactive are those of the source.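 How the source made its calls: active means fold induction of absorbance versus untreated yeast above a set limit, then at least 30% activation at any dose in follow-up; inconclusive means repeats straddling the limit, or above it without dose testing; inactive means fold induction below the set limit.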
Assay: enhancers of respiration in Yfh1-depleted yeast, dose response, Friedreich's ataxia, plus single-dose screen (AID 1465)
Conditions: S. cerevisiae Yfh1-off respiration, WST-1 reduction, 72 h; at 50 µM; active compounds read high
With Cc1ccc(OCC(C)C)c(CN(CCCl)CCCl)c1 the fold induction was inactive: 1.06.
With COc1ccc(NC2CCN(CCc3ccccc3)CC2)c(OC)c1 the fold induction was inactive: 1.03.
With CCOc1ccc(C)cc1CN(CCCl)CCCl the fold induction was inactive: 1.02.
With O=C(OC1CN2CCC1CC2)C1c2ccccc2Oc2ccccc21 (centres undefined) the fold induction was inactive: 1.05.
For N#CC1(Nc2ccccc2)CCN(Cc2ccccc2)CC1, the fold induction was inactive: 1.
In the case of CCOC(=O)N1CCC(Nc2ccc(OC)cc2)CC1, the fold induction is reported as inactive: 1.02.
In the case of O=C(NCC1(N2CCOCC2)CCCCC1)c1cc2ccccc2o1, the fold induction is reported as inactive: 0.877.
In the case of COc1ccc(C(=O)NCC2(N3CCCCC3)CCCCC2)c(OC)c1OC, the fold induction is reported as inactive: 1.03.
For CN1CCC(Nc2cccc(F)c2)CC1, the fold induction was inactive: 1.01.
In the case of CC(C)c1ccc(NC2CCN(C(=O)OC(C)(C)C)CC2)cc1, the fold induction is reported as inactive: 0.85.
In the case of COc1ccc(CN(CCCl)CCCl)cc1Cl, the fold induction is reported as inactive: 0.89.
With CN(C)c1cccc(C(=O)NCC2(N3CCCCC3)CCCCC2)c1 the fold induction was inactive: 1.05.
With O=C(NCC1(N2CCOCC2)CCCCC1)c1cc(=O)[nH]c2ccccc12 the fold induction was inactive: 1.07.
In the case of CN1CCN(CCOC(=O)C(O)(c2ccccc2)c2ccccc2)CC1, the fold induction is reported as inactive: 0.88.
For COc1ccc(NC2CCN(C(=O)OC(C)(C)C)CC2)cc1, the fold induction was inactive: 1.06.
For N#CC1(Nc2ccccc2)CCN(CCc2ccccc2)CC1, the fold induction was inactive: 1.04.
In the case of O=C(NCC1(N2CCCCC2)CCCCC1)c1cccc([N+](=O)[O-])c1, the fold induction is reported as inactive: 0.98.
In the case of c1ccc(CN2CCC(Nc3ccccc3)CC2)cc1, the fold induction is reported as inactive: 1.01.
With N#Cc1ccc(C(=O)NCC2(N3CCCCC3)CCCCC2)cc1 the fold induction was inactive: 1.05.
For O=C(OC1CN2CCC1CC2)C1c2ccccc2C=Cc2ccccc21 (centres undefined), the fold induction was inactive: 1.09.
With COc1ccc(C(=O)NCC2(N3CCOCC3)CCCCC2)cc1OC the fold induction was inactive: 1.02.
With CCCOc1ccc(C)cc1CN(CCCl)CCCl the fold induction was inactive: 1.02.
With COc1cc(OC)cc(C(=O)NCC2(N3CCOCC3)CCCCC2)c1 the fold induction was inactive: 1.12.
In the case of CCC(CO)(C(=O)OC1CN2CCC1CC2)c1ccccc1 (centres undefined), the fold induction is reported as inactive: 1.01.
In the case of CC(C)(C)OC(=O)N1CCC(Nc2ccccc2)CC1, the fold induction is reported as inactive: 0.92.
For CCOc1ncccc1C(=O)NCC1(N2CCOCC2)CCCCC1, the fold induction was inactive: 1.01.
With CN(C)c1ccc(C(=O)NCC2(N3CCCCC3)CCCCC2)cc1 the fold induction was inactive: 0.98.
For CCN1CCC(Nc2cccc(F)c2)CC1, the fold induction was inactive: 0.99.
In the case of Fc1ccccc1NC1CCN(Cc2ccccc2)CC1, the fold induction is reported as inactive: 0.98.

Source: PubChem BioAssay AID1465 (SRMLSC, 2008)
